# Assay: In vivo insulin pharmacokinetics and ocular distribution after subconjunctival injection
# Set-up: species or system SD rats
# Experimental: Insulin-loaded 72A nanogels containing 10% acrylic acid as bulk and surface modifier in PBS (20 mg/mL; equivalent to 3 mg/mL insulin) were injected subconjunctivally (20 μL) to the left eye of anaesthetized SD rats (n=5) using a 25 gauge Hamilton™ needle. The right eyes were injected with PBS to serve as sham controls. After 1, 3 and 7 days of injection, the rats were euthanized, their eyes were inoculated, and the aqueous humor (AH), vitreous humor (VH), cornea, lens, Iris/ciliary body (CB), sclera, choroid and retina were collected in a weighted 2 mL flat bottom Eppendorf™ microcentrifuge tube and were kept at −80° C. until tissue homogenization and insulin extraction.
# Similarly, another group of rats (n=5) were injected with an equivalent amount of insulin in PBS. Before tissue homogenization, the tough tissues (lens, cornea and sclera) were ground by a CryoGrinder™ System (OPS Diagnostics LLC) at cryogenic temperatures. […]
# Prior to the homogenization step, 20 μL 1 mg/mL bovine insulin was added as an internal standard. […] Then the insulin in the desolate was extracted using a solid phase extraction column and the insulin trapped in the column was extracted in 20 μL solvent mixture (acetonitrile: isopropanol: water: HAC 50:24:24:2 v/v/v/v) and quantitated using LC-MS. […]
substance,measurement,setting,value
insulin,insulin detected in ocular tissues,after 3 and 7 days,no appreciable amount
same,insulin recovered in different ocular tissues,one day after subconjunctival injection,significant amount

# — patent US20250255808A1, “NANOGEL PLATFORM TECHNOLOGY FOR LONG-TERM BIOLOGICS THERAPY” (UNIVERSITY OF MARYLAND, BALTIMORE, priority 2022, published 2025)
